# Measured affinities in a library of Ab-14 light chain variants

Source: Engelhart et al. 2022 (doi:10.1038/s41597-022-01779-4), MIT Lincoln Laboratory and A-Alpha Bio; data file from the FLAb repository.

All variants were tested on one target, the spike HR2 peptide PDVDLGDISGINAS (SARS-CoV-2).

The variants keep the heavy chain, the linker and the frameworks of Ab-14 (scFv order VH, the linker GGGGSGGGGSGGGGS, VL).
VH: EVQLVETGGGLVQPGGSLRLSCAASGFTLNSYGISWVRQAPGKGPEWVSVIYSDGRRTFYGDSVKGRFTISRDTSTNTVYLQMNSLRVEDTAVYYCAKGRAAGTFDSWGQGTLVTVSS
VL: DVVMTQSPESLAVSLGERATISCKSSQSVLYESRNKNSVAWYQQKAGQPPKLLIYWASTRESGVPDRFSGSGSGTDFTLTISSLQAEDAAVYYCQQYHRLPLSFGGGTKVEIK

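Phage display of a naive human antibody library on the peptide gave the parent. In library AAYL50, one, two or three CDR residues were substituted; doubles and triples were drawn at random. AlphaSeq pools MATa yeast showing the antibodies with MATalpha yeast showing the peptide. After mating in shaken culture at 30 °C for 16 h, diploids were selected and their barcode pairs sequenced. Read counts were normalised to the haploid input and turned into Kd by a linear fit to BCL2-family pairs of known affinity, for each replicate. The assay was run in three technical replicates.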

Substitutions are numbered in sequence along the VL above, starting at 1 (not Kabat).
Numbers give log10(Kd / nM), so 0 is 1 nM and 3 is 1 µM. Smaller is tighter.
The mean shown is taken over the replicates in which the pair was detected.
"n.d." means that the variant was in the library but no mating with the target was seen in that replicate; the authors take this as a sign of poor binding, and no number exists.
Parent in this assay: reference entry 0.65, copy in this library 1.68.
Background: pairings of library AAYL50 with three empty control strains gave a value in 18% of cases (median 4.19, 5th percentile 2.99). Values in that range, when seen in few replicates, are hard to tell from nonspecific mating.

log10 Kd (nM) by replicate | log10 Kd (nM), mean | changes
4.40 / n.d. / n.d. | 4.40 | K36C S58L T59W
n.d. / 4.31 / 4.66 | 4.48 | E32H S38F S103A
0.39 / 0.65 / 0.65 | 0.56 | W56A T59D Q96A
1.17 / 1.42 / 1.37 | 1.32 | K36E S62G L100V
3.00 / 2.88 / 3.56 | 3.15 | S28E T59W Y97E
5.31 / n.d. / n.d. | 5.31 | N35I W56M Y97F
n.d. / n.d. / n.d. | n.d. | S58T Y97N H98D
n.d. / n.d. / n.d. | n.d. | E32W N37W R60D
0.64 / 0.70 / 0.85 | 0.73 | S28E V29I T59E
1.05 / 1.25 / 1.36 | 1.22 | S25G S26A Q95G
n.d. / 4.42 / 5.11 | 4.76 | V29M S38D Y97W
4.64 / 4.84 / n.d. | 4.74 | V39G A40M A57Y
4.73 / n.d. / n.d. | 4.73 | V29S T59G Q95M
1.70 / 1.79 / 1.89 | 1.79 | K24S E61T L102V
2.12 / 1.26 / 1.89 | 1.76 | S62T Q95M Y97V
n.d. / n.d. / n.d. | n.d. | A40I W56R R60D
6.32 / 4.10 / 4.41 | 4.94 | S28T S38D R60C
5.47 / n.d. / n.d. | 5.47 | Q96D Y97P
n.d. / n.d. / n.d. | n.d. | L30N T59A R99Y
1.71 / 1.89 / 1.75 | 1.78 | Q27D R34N S62Q
2.24 / 2.65 / n.d. | 2.45 | Y31W Q96W
n.d. / n.d. / n.d. | n.d. | K36Y V39T Q95N
n.d. / 4.49 / 4.27 | 4.38 | S33H Q95R L102S
n.d. / n.d. / n.d. | n.d. | N37Q R99F L102A
1.15 / 1.12 / 1.18 | 1.15 | R34C E61V H98R
2.10 / 1.76 / 2.16 | 2.01 | Q27Y Y31M N37H
1.23 / 1.49 / 1.34 | 1.35 | L30A Y31F N35S
n.d. / n.d. / n.d. | n.d. | L30S E32I Q96A
n.d. / n.d. / n.d. | n.d. | S25T V29C N35Y
3.45 / 2.71 / 4.86 | 3.67 | Q27E S33W Q96D
1.34 / 1.48 / 1.55 | 1.46 | S26E V29E R99A
1.37 / 1.15 / 1.36 | 1.29 | K36H L102M S103G
-0.18 / 0.36 / 0.19 | 0.12 | L30I Y31F W56Y
n.d. / n.d. / n.d. | n.d. | N35P S38W Q96A
n.d. / n.d. / n.d. | n.d. | A40F R99E L100W
4.64 / n.d. / n.d. | 4.64 | Q27H V39C
4.23 / 3.96 / 4.74 | 4.31 | N35F A40W L100P
n.d. / n.d. / n.d. | n.d. | A57S S62N Q95Y
n.d. / n.d. / n.d. | n.d. | V29A Y31M V39Q
n.d. / n.d. / n.d. | n.d. | S26K T59I P101F
4.46 / 3.92 / 3.52 | 3.97 | R60Q E61A Y97G
1.33 / 1.53 / 1.47 | 1.44 | E32N W56F A57T
0.74 / 0.88 / 0.44 | 0.68 | Y31A Y97P R99K
3.76 / n.d. / n.d. | 3.76 | N37G Q96M
1.48 / 1.44 / 1.51 | 1.48 | Q27A L30E T59W
3.25 / 2.47 / 2.80 | 2.84 | R34M Q95N L102K
-0.34 / 0.02 / -0.25 | -0.19 | S25N W56E S62W
n.d. / n.d. / n.d. | n.d. | E32P N37I Q95N
4.31 / 3.20 / n.d. | 3.75 | K24C S33F N37Y
4.75 / 2.66 / 2.33 | 3.25 | S25R E61L Q96F
4.22 / n.d. / 3.80 | 4.01 | W56A S58P S103V

The first 8 entries again:

changes | log10 Kd (nM) by replicate | log10 Kd (nM), mean
K36C S58L T59W | 4.40 / n.d. / n.d. | 4.40
E32H S38F S103A | n.d. / 4.31 / 4.66 | 4.48
W56A T59D Q96A | 0.39 / 0.65 / 0.65 | 0.56
K36E S62G L100V | 1.17 / 1.42 / 1.37 | 1.32
S28E T59W Y97E | 3.00 / 2.88 / 3.56 | 3.15
N35I W56M Y97F | 5.31 / n.d. / n.d. | 5.31
S58T Y97N H98D | n.d. / n.d. / n.d. | n.d.
E32W N37W R60D | n.d. / n.d. / n.d. | n.d.